We go through one substance from patent US20150024050A1.

Where two headings read alike, the source gives them in different places.

Holding throughout (experiment): cell-based or functional assay
Assay [1] concerns the target Pulmozyme (dornase alfa), mammalian (CHO) cell expressed recombinant human DNase I (human) (UniProt P24855).
Assay [2] addresses plant-expressed recombinant human DNase I (human) (UniProt P24855).
The target in assay [3] is Pulmozyme (dornase alfa), mammalian (CHO) cell expressed recombinant human DNase I (human) (UniProt P24855). The source holds these as a separate data set.
Assay [4] deals with plant-expressed recombinant human DNase I (human) (UniProt P24855). This is another data set of the same source.

On to “human non-muscle actin (Cytoskeleton; cat No. APHL99) (from UniProt P60709 2-375)”, for which the IC50 (µg/ml) of actin for inhibition of DNase I catalytic activity, DNA-methyl green assay; row Pulmozyme in assay [1] came out at 0.687 µg/mL. Further, the IC50 (µg/ml) of actin for inhibition of DNase I catalytic activity, DNA-methyl green assay; row Prh DNase I in assay [2] came out at 1.82 µg/mL. Also, the IC50 (µg/ml) of actin for inhibition of DNase I catalytic activity, DNA-methyl green assay; row Pulmozyme in assay [3] amounted to 0.546 µg/mL. For the same substance, in assay [4], the IC50 (µg/ml) of actin for inhibition of DNase I catalytic activity, DNA-methyl green assay; row Prh DNase I batch 1 came out at 1.71 µg/mL and the IC50 (µg/ml) of actin for inhibition of DNase I catalytic activity, DNA-methyl green assay; row Prh DNase I batch 2 is 1.85 µg/mL.
